Measurements published in patent publication US20260027125A1, “AN ANTIBACTERIAL PARENTERAL FORMULATION AND METHODS THEREOF” (BUGWORKS RESEARCH INDIA PVT. LTD., priority 2022, published 2026).

Assay: Solubility enhancement trials
Type: physicochemical
Protocol: All observations were recorded once the solution temperature reached to 25° C.-30° C.

In the case of `Cn1c(=O)ccc2ccc(F)c(CCNC[C@H]3CN(c4cnc5c(n4)NC(=O)CO5)C(=O)O3)c21` [compound of Formula (I) formate salt, (S)-6-(5-(((2-(7-fluoro-1-methyl-2-oxo-1,2-dihydroquinolin-8-yl)ethyl)amino)methyl)-2-oxooxazolidin-3-yl)-2H-pyrazino[2,3-b][1,4]oxazin-3(4H)-one formate], the “Remark (appearance)” value (Sr. No. 1: 5% Ascorbic acid solution) was “Clear solution”, the “Remark (appearance)” value (Sr. No. 2: 7.5% Citric acid solution) was “PPt on standing” and the “Remark (appearance)” value (Sr. No. 3: […] Acetic acid Solution) was “Clear solution”. For the same molecule, the “Remark (appearance)” value (Sr. No. 4: […] Succinic acid Solution) was “Clear solution”, the “Remark (appearance)” value (Sr. No. 5: 7.5% Citric acid + 20% Sulfobutyl ether β-CD) was “PPt on standing immediately” and the “Remark (appearance)” value (Sr. No. 6: 7.5% Citric acid + 20% HPβ-CD, standing overnight) was “PPt on standing for”. The “Remark (appearance)” value (Sr. No. 7: 7.5% Citric acid + 20% HPβ-CD + 4% Ethanol, standing overnight) was “PPt on standing for”, the “Remark (appearance)” value (Sr. No. 8: 5% Ascorbic acid + 5% Citric acid + 0.5% PVP K-12 + 20% HPβ-CD) was “PPt on standing immediately” and the “Remark (appearance)” value (Sr. No. 9: 10% Ascorbic acid + 1% PVP K-12 + 20% HPβ-CD, 25 mg/mL sample) was 25 mg/mL sample- Clear. The “Remark (appearance)” value (Sr. No. 9: 10% Ascorbic acid + 1% PVP K-12 + 20% HPβ-CD, 30 mg/mL sample) was “hazy Solution”, the “Remark (appearance)” value (Sr. No. 10: 5% Ascorbic acid + 2% PVP K-12 + 20% HPβ-CD) was “Clear solution” and the “Remark (appearance)” value (Sr. No. 12: 7.5% Ascorbic acid + 1% PVP K-12 + 20% HPβ-CD) was “Clear solution”. The “Remark (appearance)” value (Sr. No. 13: 5% Ascorbic acid + […] Lactic acid + 1% PVP K-12 + 20% HPβ-CD) was “— Clear solution”, the “Remark (appearance)” value (Sr. No. 15: 7.5% Ascorbic acid + 1% PVP K-12 + 30% HPβ-CD) was “Clear solution” and the “Remark (appearance)” value (Sr. No. 17: 10% Ascorbic acid + 1% PVP K-12 + 30% HPβ-CD) was “Clear solution”. For the same molecule, the “Remark (appearance)” value (Sr. No. 18: 7% Ascorbic acid + […] Acetic acid + 1% PVP K-12 + 30% HPβ-CD) was “Clear Solution with few”, the “Remark (appearance)” value (Sr. No. 19: 7% Ascorbic acid + 0.9% Glycine + 30% HPβ-CD) was “Clear solution” and the “Remark (appearance)” value (Sr. No. 20: 7% Ascorbic acid + […] Acetic acid + 0.9% Glycine + 30% HPβ-CD) was “Clear Solution with few”. The “Remark (appearance)” value (Sr. No. 21: 7% Ascorbic acid + […] lactic acid + 1% PVP K-12 + 30% HPβ-CD) was “Clear solution”, the “Remark (appearance)” value (Sr. No. 22: 6% Ascorbic acid + […] Acetic acid + […] lactic acid + 1% PVP K-12 + 30% HPβ-CD) was “Clear Pale Yellow color” and the “Remark (appearance)” value (Sr. No. 23: Acetate Buffer (200 mM, pH 3.0) + 6% Ascorbic acid + […] lactic acid + 1% PVP K-12 + 30% HPβ-CD) was “Slightly Hazy Solution”. For the same molecule, the “Remark (appearance)” value (Sr. No. 24: 5% Ascorbic acid + […] Acetic acid + […] lactic acid + 1% PVP K-12 + 30% HPβ-CD, pH adjusted by L-Arginine Solution) was “Clear Pale Yellow Solution”.

Where a name gives a salt, the structure may show the parent alone.
